Source: ChEMBL document CHEMBL5360528, “A systematic review on the kappa opioid receptor and its ligands: New directions for the treatment of pain, anxiety, depression, and drug abuse” (Eur J Med Chem, 2022)

The chains behind the UniProt entries cited, without tags or fusion partners. Where a name states a change or a piece, a line headed by the entry shows the natural chain unless it says otherwise.
UniProt P41145: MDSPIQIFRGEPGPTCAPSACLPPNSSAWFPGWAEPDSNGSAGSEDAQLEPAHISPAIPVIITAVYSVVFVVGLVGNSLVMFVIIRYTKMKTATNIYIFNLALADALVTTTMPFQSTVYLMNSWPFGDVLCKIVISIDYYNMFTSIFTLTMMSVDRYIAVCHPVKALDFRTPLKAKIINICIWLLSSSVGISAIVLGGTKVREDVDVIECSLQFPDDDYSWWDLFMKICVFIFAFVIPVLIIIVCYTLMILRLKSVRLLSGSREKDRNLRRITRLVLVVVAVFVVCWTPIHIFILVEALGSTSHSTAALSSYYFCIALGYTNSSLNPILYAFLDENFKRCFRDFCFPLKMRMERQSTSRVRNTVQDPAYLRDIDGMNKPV
UniProt P41144: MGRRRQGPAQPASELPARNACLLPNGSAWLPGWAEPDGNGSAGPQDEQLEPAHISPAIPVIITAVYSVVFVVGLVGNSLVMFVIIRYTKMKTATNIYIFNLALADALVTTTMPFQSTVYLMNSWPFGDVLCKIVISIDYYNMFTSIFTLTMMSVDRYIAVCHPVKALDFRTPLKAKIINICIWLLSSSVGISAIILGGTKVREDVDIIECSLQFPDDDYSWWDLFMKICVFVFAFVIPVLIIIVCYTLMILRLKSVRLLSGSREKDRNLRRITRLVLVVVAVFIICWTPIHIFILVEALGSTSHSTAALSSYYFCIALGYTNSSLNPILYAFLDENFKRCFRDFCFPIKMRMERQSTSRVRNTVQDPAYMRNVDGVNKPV
UniProt P35372, whole entry, looked up: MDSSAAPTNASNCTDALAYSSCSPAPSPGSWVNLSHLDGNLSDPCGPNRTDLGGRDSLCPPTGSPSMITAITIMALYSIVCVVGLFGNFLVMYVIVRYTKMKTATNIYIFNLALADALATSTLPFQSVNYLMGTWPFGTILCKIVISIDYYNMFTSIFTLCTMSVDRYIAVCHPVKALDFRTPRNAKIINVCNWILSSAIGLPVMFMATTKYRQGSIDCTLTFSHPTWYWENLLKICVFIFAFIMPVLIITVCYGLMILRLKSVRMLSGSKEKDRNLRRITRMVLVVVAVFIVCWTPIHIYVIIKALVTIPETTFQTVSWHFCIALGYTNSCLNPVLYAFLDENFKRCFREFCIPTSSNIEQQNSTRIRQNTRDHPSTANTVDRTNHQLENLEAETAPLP

Experiments:
[1] = target: T1, Kappa-type opioid receptor (Homo sapiens, UniProt P41145); experiment: Binding affinity to KOR receptor (unknown origin) assessed as inhibition constant
[2] = target: T1, Kappa-type opioid receptor; experiment: Agonist activity at human KOR expressed in CHO cell membranes by beta-arrestin translocation assay
[3] = tested on: Mus musculus; experiment: Antinociceptive activity in CD-1 mouse assessed as maximum possible effect at 10 nmol, icv measured after 15 mins by tail-flick test; details: 0.25 h
[4] = target: T2, Kappa-type opioid receptor (Cavia porcellus, UniProt P41144); experiment: Agonist activity at KOR in guinea pig brain membranes assessed as stimulation of [35S]GTPgammaS binding measured after 1 hr by liquid scintillation counting analysis
[5] = target: T2, Kappa-type opioid receptor; experiment: Binding affinity to KOR in Guinea pig brain assessed as inhibition constant
[6] = target: Mu-type opioid receptor (Homo sapiens, UniProt P35372); experiment: Binding affinity to MOR (unknown origin) assessed as inhibition constant by radioligand binding assay

## CN(C(=O)Cc1ccc(Cl)c(Cl)c1)C1CCC2(CCCO2)CC1N1CCCC1 (stereo unspecified)
[1]
  Ki: 8.6 nM
[2]
  EC50: 1.01 nM
[3]
  ED50: 10.3 pmol

## COC(=O)[C@@H]1C[C@H](OC(C)=O)C(=O)[C@H]2[C@@]1(C)CC[C@H]1C(=O)O[C@H](c3ccoc3)C[C@]21C [listing 1 of 2 here]
[4]
  Ki: > 5000 nM

## COC(=O)[C@@H]1C[C@H](OC(C)=O)C(=O)[C@H]2[C@@]1(C)CC[C@H]1C(=O)O[C@H](c3ccoc3)C[C@]21C [listing 2 of 2 here]
[5]
  Ki: 4.3 nM

## CN(C(=O)Cc1ccc(Cl)c(Cl)c1)C1CCCCC1N1CCCC1 (stereo unspecified)
[6]
  Ki: 370 nM
